The values below come from US20260382729A1, “HETEROBIFUNCTIONAL COMPOUNDS AS p53 ACETYLATORS” (published 2026).

Experiment [1] concerns K382 acetylation in NCI-H1299 p53-null cells. Description: p53K382ac level, Western blot, NCI-H1299 p53-null. As to conditions: 0, 1, 3, 10 μM, 24 h. As for the experimental part: (§1) . […] We also confirmed that the effect of MS78 on inducing p53 Y220C K382 acetylation was abolished in p300 knockdown cells (FIG. 7F).
FIG. 7. […] . Cell viability of MS78, PK9328 and compound 33 in (A) NCI-H1299 p53-null and (B) NCI-H1299 p53Y220C cells. The cells were treated with the indicated compounds at the indicated concentrations for 72 h. The mean values ±SD from three independent experiments are shown. […] . Right, quantification of the p53K382ac protein level normalized to Vinculin from two independent experiments. […] . Total cell lysate was used for western blots, as previously described.^47 The following primary antibodies were used in the study: Vinculin (Cell Signaling Technology [CST], 13901), p53 (CST, 2527), acetyl-p53 (lys-382) (CST, 2525), acetyl-p53 (lys-379) (CST, 2570), p21 (CST, 2947), p300 (CST, 86377), p53 polyclonal antibody (Proteintech, 10442-1-AP). Blots were imaged using fluorescence-labeled secondary antibodies on LI-COR Odyssey CLx Imaging Systems.

For experiment [2], the system named is p53-p300 interaction in NCI-H1299 p53-null cells. Briefly: p53-p300 interaction by p53-FLAG pull-down, NCI-H1299 (p53-null). As to conditions: 24 h. The source says:
FIG. 6. Discovery and characterization of MS78. (A) Chemical structure of MS78, derived from compound 7. […] . Right, quantification of the normalized p53K382ac level on the left. Results shown are the mean values±SD from three independent experiments. […] . Results shown are representative of three independent experiments. […] . Right, quantification of normalized p300 and p53K382ac levels from three independent experiments shown on the left. […] . Right, quantification of normalized p300 and p53K382ac levels from three independent experiments shown on the left. […] . Right, quantification of the p300 and normalized p53K382ac levels from four independent experiments shown on the left (***P<0.001).
Next, we performed endogenous IP experiments to pull down FLAG-tagged p53Y220C to assess the ternary complex formation between p53Y220C and p300 in the presence of MS78. We treated NCI-H1299 p53-null and NCI-H1299 p53Y220C cells with MS78 at two concentrations. […] To further confirm that p53Y220C K382 acetylation depends on p300, we knocked down p300 using siRNA in the NCI-H1299 (p53Y220C) cell line and monitored p53Y220C K382 acetylation. […] . […] Finally, we performed competition rescue experiments by pretreating the NCI-H1299 p53Y220C cell line with 10 μM of compound 33 (the p300/CBP bromodomain binder used in MS78) for 2 hours. […] . […]

Experiment [3] deals with p53K382ac level in U-2 OS cells. Description: p53K382ac level, Western blot, U-2 OS. As to conditions: 0, 1, 3 and 10 μM, 24 h. The source says: Right: quantification of the normalized p53K382ac level in BxPC3 cells from three independent experiments. *P<0.05, **P<0.01, ***P<0.001. […] . GraphPad Prism 8 was used in analysis of raw data. […] . Cells were fixed and stained with crystal violet and the images are representative of two independent experiments. […] . […] . Total cell lysate was used for western blots, as previously described.^47 The following primary antibodies were used in the study: Vinculin (Cell Signaling Technology [CST], 13901), p53 (CST, 2527), acetyl-p53 (lys-382) (CST, 2525), acetyl-p53 (lys-379) (CST, 2570), p21 (CST, 2947), p300 (CST, 86377), p53 polyclonal antibody (Proteintech, 10442-1-AP). Blots were imaged using fluorescence-labeled secondary antibodies on LI-COR Odyssey CLx Imaging Systems.

The test system of the next experiment is NCI-H1299 p53Y220C cells. Description: cell viability, NCI-H1299 p53Y220C. As for the experimental part:
as §1
FIG. 7. […] . Cell viability of MS78, PK9328 and compound 33 in (A) NCI-H1299 p53-null and (B) NCI-H1299 p53Y220C cells. The cells were treated with the indicated compounds at the indicated concentrations for 72 h. The mean values ±SD from three independent experiments are shown. […] . Right, quantification of the p53K382ac protein level normalized to Vinculin from two independent experiments. […] . For siRNA transfection, control and p300 siRNA (sc-29431) were purchased from Santa Cruz Biotechnology. Briefly, NCI-H1299 cells were seeded on 6-well plates at a density of 3×10^5 cells/well (~75-80% confluency). Cells were transfected the following day with Lipofectamine 3000 transfection reagent (L3000008, ThermoFisher Scientific) and harvested 48 h after transfection. For the construction of FLAG-p53Y220C stable cell lines, transfected NCI-H1299 cells were selected with G418 for 14 days.
The cell viability assay was performed as previously described.^48 Briefly 5×10^4 cells were seeded per well into 96-well microplates. […] Cell viability was evaluated using WST-8 reagent (CK04, Dojindo). Absorbance signals were obtained with Infinite F PLEX plate reader (TECAN, Morrisville, NC) at 450 nm with 690 nm as reference wavelength after 3 h incubation at 37 °C. […]

As to `CCn1c2ccc(CNCCOCCOCCOCCn3cc(COc4ccc(CCc5nc6cc(-c7c(C)noc7C)ccc6n5CCN5CCOCC5)cc4F)nn3)cc2c2ccc(-c3cc(C)cs3)cc21`, the K382 acetylation entry in experiment [1] is recorded as “did not induce K382 acetylation”. In experiment [2], the “interaction between p53 and p300” value is listed as “no interaction was observed”. Further, the p53K382ac level entry in experiment [3] is recorded as “did not alter the p53K382ac level”. Further, the “selectivity of anti-proliferative activity” value in the experiment on NCI-H1299 p53Y220C cells (Y220C-mutant cancer cells vs WT p53 cancer cells and normal cells) was “selective for cancer cells with the Y220C mutation over cancer cells with WT p53 and normal cells”. Besides, the “anti-proliferative effect upon p300 knockdown” value in the experiment on NCI-H1299 p53Y220C cells (p300-siRNA-treated NCI-H1299 p53Y220C, 72 h) is reported as “abolished the anti-proliferative effect”.
